# Reference: PubChem BioAssay AID2016 (NMMLSC, 2009)
# Only a part is listed here, and it is no random draw. Calls of active or inactive are those of the source.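 The calls were made as follows: active = GFP response versus DMSO above a set limit, roughly screen mean plus 3 SD (cut at about 180% in these data); inconclusive = fewer than 70 cells counted for a yeast strain; inactive = the rest.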
# Experiment: TOR pathway GLN3 branch reporter MEP2-GFP changes – S. cerevisiae, multiplex flow cytometry, MLPCN library, primary screen (AID 2016);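 also: median GFP fluorescence of the barcode-gated MEP2-GFP cells per well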
# Conditions: S. cerevisiae MEP2-GFP strain, 3 h, at 10 µM, stronger effect = higher value, 100% = DMSO control level
row,SMILES,GFP response vs DMSO
1,O=C(O)CNc1ccc([As](=O)(O)O)cc1,inactive: 98.8%
2,O=[N+]([O-])c1cccc(NC2=NCC(CBr)S2)c1 (centres undefined),inactive: 111%
3,O=[N+]([O-])c1ncn(CCn2ncnc2[N+](=O)[O-])n1,inactive: 89.9%
4,CC(C)(C)C(=O)NC(Sc1ccncn1)C(Cl)(Cl)Cl (centres undefined),inactive: 102%
5,O=C(Nc1cc([As](=O)(O)O)ccc1O)c1ccccc1,inactive: 99.7%
6,CC1CCN(C(=O)Oc2c(Cl)cc(Cl)c3cccnc23)CC1,inactive: 98.7%
7,CC(C)=N/N=C(\N)N[N+](=O)[O-],inactive: 101%
8,CN(C)C(=O)OCCc1n(C)cc[n+]1C,inactive: 101%
9,CCN(/C(=N/P(=O)(N1CCOCC1)N1CCOCC1)N1CCOCC1)c1ccc(OC)cc1,inactive: 99.8%
10,Nc1ccc([As](=O)(O)c2ccc(N)cc2)cc1,inactive: 96.8%
11,C[N+]1=C2C=CC=CC=C2SC12C([N+](=O)[O-])=CC([N+](=O)[O-])=C[C-]2[N+](=O)[O-] (centres undefined),inactive: 99.9%
12,Cc1ccc(NP(=O)(Oc2ccccc2)Oc2ccccc2)nc1,inactive: 95.2%
13,CCc1nc2c(n1)c1c(non1O)c1c2no[n+]1[O-],inactive: 107%
14,O=[N+]([O-])c1cc([N+](=O)[O-])c(CCNc2ccccc2)c([N+](=O)[O-])c1,inactive: 98.1%
15,O=[N+]([O-])c1cccc2n[nH]nc12,inactive: 103%
16,CC(=O)N1C2C3N(C(C)=O)C1C1N(C(C)=O)C(C(N1C(C)=O)N3C(C)=O)N2C(C)=O,inactive: 103%
17,COc1ccc(C2=NCC(CBr)S2)cc1 (centres undefined),inactive: 110%
18,Oc1ccccc1CNc1ccccn1,inactive: 96.9%
19,Cc1c2non([O-])c-2c(C)[n+](=O)[n+]1[O-],inactive: 101%
20,O=C(NC(Sc1ccncn1)C(Cl)(Cl)Cl)c1ccccc1 (centres undefined),inactive: 104%
21,CC(C)CC(=O)NC(Sc1ccc(Cl)cc1)C(Cl)(Cl)Cl (centres undefined),inactive: 105%
22,Nc1cc(N)c2nonc2c1[N+](=O)[O-],inactive: 99.1%
23,Clc1ccc(Cl)c(NC2=NCC(CBr)S2)c1 (centres undefined),inactive: 96.9%
24,CN1CCCC(OC(=O)C(c2ccccc2)c2ccccc2)C1 (centres undefined),inactive: 102%
25,COc1ccccc1OP(=O)(Nc1ccc(C)cn1)Oc1ccccc1OC,inactive: 104%
26,Cc1ccc(OP(=O)(Nc2nccs2)Oc2ccc(C)cc2)cc1,inactive: 99.8%

row,SMILES,GFP response vs DMSO
1,CN(C(=O)Cc1ccc(Cl)c(Cl)c1)[C@H]1CCCC[C@H]1N1CCCC1,inactive: 101%
2,Cc1ccc(N/C(=N/P(=O)(N2CCOCC2)N2CCOCC2)N2CCOCC2)cc1,inactive: 100%
3,NC(=O)c1cc([N+](=O)[O-])cc([N+](=O)[O-])c1N,inactive: 97%
4,Nc1cccc2ccc([As](=O)(O)O)cc12,inactive: 105%
5,CCN(N=Nc1nonc1N)c1nonc1N,inactive: 108%
6,O=[N+]([O-])c1cc([N+](=O)[O-])c(CCN2CCOCC2)c([N+](=O)[O-])c1,inactive: 102%
7,CCOP(=O)(Nc1ccccc1)OCC,inactive: 106%
8,Cc1cc(SC(NC(=O)c2ccc(F)cc2)C(Cl)(Cl)Cl)ncn1 (centres undefined),inactive: 96.9%
9,Cc1ccc(NP(=O)(Oc2ccccc2F)Oc2ccccc2F)nc1,inactive: 104%
10,CN(C(=O)Cc1ccc(Cl)c(Cl)c1)[C@H]1CCCC[C@@H]1N1CCCC1,inactive: 99.8%
11,O=P(Nc1nc2ccc(Cl)cc2s1)(c1ccccc1)c1ccccc1,inactive: 99.6%
12,O=C(O)c1ccccc1[As](=O)(O)O,inactive: 95.2%
13,CC(=O)Nc1ccc([As](=O)(O)O)cc1,inactive: 95.2%
14,Cc1ccccc1OP(=O)(Nc1ccccn1)Oc1ccccc1C,inactive: 104%
15,CC(NC(=O)COC(=O)C(O)(c1ccccc1)c1ccccc1)c1ccccc1 (centres undefined),inactive: 100%
16,CN(C)C(=O)Oc1noc2ccccc12,inactive: 86.3%
17,O=C(OC1CN2CCC1CC2)c1ccccc1 (centres undefined),inactive: 108%
18,CCC(=O)N1C2C3N(C(=O)CC)C1C1N(C(=O)CC)C(C(N1C(=O)CC)N3C(=O)CC)N2C(=O)CC,inactive: 104%
19,COC(=O)c1cc2c(s1)N=C(c1ccccc1)N(C)P2(=O)N1CCOCC1 (centres undefined),inactive: 106%
20,CC(=O)NC(SC(=S)N(CC(C)C)CC(C)C)C(Cl)(Cl)Cl (centres undefined),inactive: 93%
21,Cc1ccc(OP(=O)(Nc2ccccn2)Oc2ccc(C)cc2)cc1,inactive: 97.2%
22,c1ccc(-c2nn[nH]n2)c(-c2nn[nH]n2)c1,inactive: 97.4%
23,Cc1ccc(NP(=O)(Oc2cccc(C)c2)Oc2cccc(C)c2)nc1,inactive: 104%
24,CCOC(=O)NC(Sc1ccccc1)C(Cl)(Cl)Cl (centres undefined),inactive: 98.9%
25,CCNC(=S)/N=C(\N)N[N+](=O)[O-],inactive: 98.7%
26,O=C(NC1CCS(=O)(=O)C1)NP(=S)(Oc1ccccc1)Oc1ccccc1 (centres undefined),inactive: 99.6%

row,SMILES,GFP response vs DMSO
1,CC(=O)Nc1ccc([As](=O)(O)O)c(O)c1,inactive: 108%
2,CC(=O)Nc1ccc(Oc2c([N+](=O)[O-])cc([N+](=O)[O-])cc2[N+](=O)[O-])cc1,inactive: 87.6%
3,Cc1ccccc1CN(C)C(=O)COC(=O)C(O)(c1ccccc1)c1ccccc1,inactive: 102%
4,C[C@@H]1C=CCP(=O)(Oc2ccccc2)O1 (some centres undefined),inactive: 96.1%
5,C[C@H]1OP(=O)(Oc2ccccc2)C[C@@H]2O[C@@H]21 (some centres undefined),inactive: 95.5%
6,CC(=O)c1ccc(N2CC2c2ccncc2)cc1 (centres undefined),inactive: 97.8%
7,CC(C)(C)C(=O)NC(Sc1ccccc1)C(Cl)(Cl)Cl (centres undefined),inactive: 78.7%
8,O=P1(Nc2nc3ccc(Cl)cc3s2)COc2ccccc2O1 (centres undefined),inactive: 98.4%
9,CCOc1ccc(C2=NCC(CBr)S2)cc1 (centres undefined),inactive: 97.5%
10,c1nnnn1CCn1cnnn1,inactive: 105%
11,CC(C)C(=O)NC(Sc1ccccc1)C(Cl)(Cl)Cl (centres undefined),inactive: 98.5%
12,O=P(Nc1nccs1)(c1ccccc1)c1ccccc1,inactive: 105%
13,O=C(OC1CN2CCC1CC2)c1cccc(Cl)c1 (centres undefined),inactive: 99.9%
14,Nc1ccc([As](=O)(O)c2ccc([N+](=O)[O-])cc2)cc1,inactive: 101%
15,C(Cc1nn[nH]n1)Cc1nn[nH]n1,inactive: 97%
16,O=[As](O)(c1ccccc1)c1ccc(O)cc1,inactive: 92.4%
17,O=[N+]([O-])c1ccc(O)c(/C=N/Nc2ccc([N+](=O)[O-])cc2[N+](=O)[O-])c1,inactive: 104%
18,CC(=O)NC(SC(=S)N(C)C)C(Cl)(Cl)Cl (centres undefined),inactive: 104%
19,O=[N+]([O-])c1ncn(CCn2cnc([N+](=O)[O-])n2)n1,inactive: 104%
20,O=P(Nc1nc2ccccc2s1)(c1ccccc1)c1ccccc1,inactive: 98%
21,C[C@H]1OP(=O)(Oc2ccccc2)[C@H](O)[C@H](O)[C@H]1N=[N+]=[N-] (some centres undefined),inactive: 99.2%
22,O=P(Nc1ccccn1)(c1ccc(Br)cc1)c1ccc(Br)cc1,inactive: 102%
23,CN(C)C1(CNC(=O)c2ccc(Cl)c(S(N)(=O)=O)c2)CCCCC1,inactive: 103%
24,Nc1cccc([As](=O)(O)c2ccccc2)c1,inactive: 85.6%
25,O=P1(Nc2ccc(Br)cn2)COc2ccccc2OC1,inactive: 111%
26,NS(=O)(=O)c1cccc(NC(=O)COC(=O)C(O)(c2ccccc2)c2ccccc2)c1,inactive: 95.5%

row,SMILES,GFP response vs DMSO
1,Cc1ccc(OCC(=O)OC2CN3CCC2CC3)cc1 (centres undefined),inactive: 96.1%
2,O=[As](O)(c1cccs1)c1cccs1,inactive: 103%
3,O=P1(Nc2ncccn2)COc2ccccc2OC1,inactive: 109%
4,CN(C)C1(CNC(=O)c2ccc(S(C)(=O)=O)cc2)CCCCC1,inactive: 102%
5,O=C(/C=C/c1ccccc1)OC1CN2CCC1CC2 (centres undefined),inactive: 96.5%
6,Cc1nn(-c2ccccc2)c2c1P(=O)(N1CCOCC1)N(C)C(c1ccccc1)=N2 (centres undefined),inactive: 102%
7,CC1CCC(C(C)C)C(OP(=O)(Nc2ccccn2)c2ccccc2)C1 (centres undefined),inactive: 100%
8,Cc1ccc(C(=O)OC2CN3CCC2CC3)cc1 (centres undefined),inactive: 94.1%
9,CC(C)/C=N\N=C(\N)N[N+](=O)[O-],inactive: 103%
10,CN(C(=O)Cc1ccc(Cl)c(Cl)c1)[C@@H]1CCCC[C@H]1N1CCCC1,inactive: 96.7%
11,O=[As](O)(c1ccccc1Br)c1ccccc1Br,inactive: 104%
12,CC1(CBr)Cn2c(nc3ccccc3c2=O)S1 (centres undefined),inactive: 111%
13,COc1ccccc1CNC(=O)COC(=O)C(O)(c1ccccc1)c1ccccc1,inactive: 92.4%
14,Clc1n[nH]nc1-c1nn[nH][15n]1,inactive: 97.6%
15,CC(C)(C)C(=O)NC(Sc1ncccn1)C(Cl)(Cl)Cl (centres undefined),inactive: 91.7%
16,O=P1(Nc2ccccn2)COc2ccccc2OC1,inactive: 101%
17,CCC1=CC2Cc3nc4ccc(Cl)cc4c(N)c3C(C1)C2 (centres undefined),inactive: 108%
18,CCOP(=O)(NC(=NC(C)c1ccccc1)NC(C)c1ccccc1)OCC (centres undefined),inactive: 95.5%
19,CN(CCCl)Cc1cc(Cl)c(NC2=NCCN2)c(Cl)c1,inactive: 100%
20,CCOP(=O)(Nc1ccc(C)cn1)OCC,inactive: 107%
21,COc1cc(C2NCCC3(OCCO3)C2(C)C)cc(OC)c1OC (centres undefined),inactive: 101%
22,CCOP(=O)(Nc1cccc2ccccc12)OCC,inactive: 166%
23,Cc1ccc(NCCc2c([N+](=O)[O-])cc([N+](=O)[O-])cc2[N+](=O)[O-])cc1,inactive: 99.6%
24,Nc1cccc2c([As](=O)(O)O)cccc12,inactive: 102%
25,CCCOP(=S)(Nc1nc(N)cc(=O)[nH]1)OCCC,inactive: 100%
26,O=[As](O)(c1cccc(O)c1)c1cccc(O)c1,inactive: 103%
